Measurements as given in ChEMBL document CHEMBL1159017, “Akuammine and dihydroakuammine, two indolomonoterpene alkaloids displaying affinity for opioid receptors” (J Nat Prod, 1992).

Amino acid sequences for entries named in this document (tags omitted).
UniProt P33535, whole entry, looked up: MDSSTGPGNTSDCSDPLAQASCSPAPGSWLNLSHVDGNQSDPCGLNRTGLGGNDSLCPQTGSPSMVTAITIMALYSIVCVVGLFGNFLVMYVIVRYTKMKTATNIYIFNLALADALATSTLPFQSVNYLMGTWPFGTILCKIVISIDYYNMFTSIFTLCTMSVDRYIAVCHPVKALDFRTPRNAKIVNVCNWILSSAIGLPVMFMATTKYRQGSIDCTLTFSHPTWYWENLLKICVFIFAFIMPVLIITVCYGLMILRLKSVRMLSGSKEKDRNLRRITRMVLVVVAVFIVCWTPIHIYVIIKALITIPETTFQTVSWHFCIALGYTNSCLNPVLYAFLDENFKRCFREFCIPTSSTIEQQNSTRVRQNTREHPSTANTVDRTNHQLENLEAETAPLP

Target: Mu-type opioid receptor (Rattus norvegicus, UniProt P33535)
Assay: Displacement of [3H]DAMGO from mu opioid receptor in rat central nervous system membrane

Work on `CN(C(=O)Cc1ccc(Cl)c(Cl)c1)C1CCCCC1N1CCCC1` (stereo unspecified) yielded an IC50 of 1 nM.
